Results taken from ChEMBL document CHEMBL4184332, “Discovery of Novel Nonsteroidal Anti-Inflammatory Drugs and Carbonic Anhydrase Inhibitors Hybrids (NSAIDs-CAIs) for the Management of Rheumatoid Arthritis” (J Med Chem, 2018).

Protein sequences, listed by entry. Tags and fused reporters are not part of them. Lines headed by an entry give the natural chain unless they say otherwise; changes in a name come on top.
UniProt P00915: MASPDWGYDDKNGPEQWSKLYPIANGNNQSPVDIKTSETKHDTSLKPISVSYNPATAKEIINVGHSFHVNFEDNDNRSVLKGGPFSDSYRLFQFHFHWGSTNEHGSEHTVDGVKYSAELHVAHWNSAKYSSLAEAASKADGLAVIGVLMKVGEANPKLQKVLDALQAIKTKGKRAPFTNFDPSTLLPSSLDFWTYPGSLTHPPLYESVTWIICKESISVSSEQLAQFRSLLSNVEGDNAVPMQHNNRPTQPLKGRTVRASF
UniProt P22748: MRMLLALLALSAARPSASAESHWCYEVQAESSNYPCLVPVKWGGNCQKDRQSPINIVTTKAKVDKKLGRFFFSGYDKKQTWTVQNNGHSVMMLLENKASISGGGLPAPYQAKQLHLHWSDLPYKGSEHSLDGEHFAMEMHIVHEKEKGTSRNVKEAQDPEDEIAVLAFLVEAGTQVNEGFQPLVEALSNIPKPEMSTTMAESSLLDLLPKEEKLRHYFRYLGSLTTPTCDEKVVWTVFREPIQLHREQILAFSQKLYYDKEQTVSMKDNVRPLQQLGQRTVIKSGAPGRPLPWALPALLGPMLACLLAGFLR

Assays:
Carbonic anhydrase 2 = Carbonic anhydrase 2 (Homo sapiens, UniProt P00918); experiment: Potency index, ratio of acetazolamide Ki to test compound Ki for recombinant human carbonic anhydrase-2
In short: (§1)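 Recombinant human CA, made in house, in a stopped-flow CO₂ hydration assay. Conditions: 20 mM Hepes pH 7.5, 20 mM Na₂SO₄, 0.2 mM phenol red read at 557 nm, CO₂ 1.7-17 mM. Enzyme and inhibitor were preincubated 15 min at room temperature. Initial rates were corrected for the uncatalyzed rate. Ki came from nonlinear least squares, mean of three measurements. The ratio uses the acetazolamide Ki.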

Carbonic anhydrase 9 = Carbonic anhydrase 9 (Homo sapiens, UniProt Q16790); experiment: Potency index, ratio of acetazolamide Ki to test compound Ki for recombinant human carbonic anhydrase-9 catalytic domain
Carbonic anhydrase 1 = Carbonic anhydrase 1 (Homo sapiens, UniProt P00915); experiment: Potency index, ratio of acetazolamide Ki to test compound Ki for recombinant human carbonic anhydrase-1; in short: as §1
Carbonic anhydrase 4 = Carbonic anhydrase 4 (Homo sapiens, UniProt P22748); experiment: Potency index, ratio of acetazolamide Ki to test compound Ki for recombinant human carbonic anhydrase-4

| Structure (SMILES) | Ratio Ki (Carbonic anhydrase 2) | Ratio Ki (Carbonic anhydrase 9) | Ratio Ki (Carbonic anhydrase 1) | Ratio Ki (Carbonic anhydrase 4) |
| --- | --- | --- | --- | --- |
| COc1ccc2c(c1)c(CC(=O)NCCCCOc1ccc(S(N)(=O)=O)cc1)c(C)n2C(=O)c1ccc(Cl)cc1 | 1.5 | 3.35 | – | – |
| COc1ccc2cc(C(C)C(=O)NCCc3ccc(S(N)(=O)=O)cc3)ccc2c1 (stereo not given) | – | 2 | – | – |
| CC(C(=O)NCCCCOc1ccc(S(N)(=O)=O)cc1)c1cccc(C(=O)c2ccccc2)c1 (racemic) | 1.98 | 3.23 | 12 | – |
| CC(C)Cc1ccc(C(C)C(=O)NCCCOc2ccc(S(N)(=O)=O)cc2)cc1 (racemic) | – | 2.5 | – | 1.16 |
| CC(C(=O)NCCCOc1ccc(S(N)(=O)=O)cc1)c1cccc(C(=O)c2ccccc2)c1 (racemic) | – | 2 | – | 1.16 |
